Results from US20130261165A1, “PREVENTION AND TREATMENT OF DISEASES CHARACTERIZED BY MESENCEPHALIC DOPAMINERGIC NEURON CELL DEATH” (THE MCLEAN HOSPITAL CORPORATION, priority 2010, published 2013).

Assays:
En-1 = En-1 mRNA expression by qPCR in primary ventral midbrain cultures; settings: primary ventral midbrain cells of E12 CD1 mice, 10 μM for 24 hours, qPCR vs 18S
FoxA2 = FoxA2 mRNA expression by qPCR in primary ventral midbrain cultures; settings: primary ventral midbrain cells of E12 CD1 mice, 10 μM for 24 hours, qPCR vs 18S

**Q.** Which “Fold Increase in En-1 Expression” value (En-1) does the source give for `CCCCC1C(=O)N(c2ccccc2)N(c2ccccc2)C1=O` [Phenolbutazone] here?
**A.** The value was 1.82 Fold.

**Q.** And the “Fold Increase in FoxA2 Expression” value (FoxA2)?
**A.** Its value is 2.21 Fold.
